Protein sequences, listed by entry. Tags and fused reporters are not part of them. Residues count along the entry.
UniProt A0A010YY07, 1-332: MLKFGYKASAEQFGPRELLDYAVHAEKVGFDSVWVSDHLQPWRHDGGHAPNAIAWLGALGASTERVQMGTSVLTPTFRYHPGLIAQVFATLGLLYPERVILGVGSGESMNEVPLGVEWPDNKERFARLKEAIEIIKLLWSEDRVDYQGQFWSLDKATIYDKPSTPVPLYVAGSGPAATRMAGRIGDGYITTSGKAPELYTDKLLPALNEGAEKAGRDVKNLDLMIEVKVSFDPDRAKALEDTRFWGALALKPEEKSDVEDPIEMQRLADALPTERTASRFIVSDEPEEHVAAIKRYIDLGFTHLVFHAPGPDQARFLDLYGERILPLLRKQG

According to publication PMC6279831, “Reconstructing the evolutionary history of F420-dependent dehydrogenases” (Scientific Reports, 2018):

Tests used:
AncD1 = experiment: fluorescence quenching of cofactor (ex […] nm, em […] nm), one-site fit; settings: read-out: AncD1 / kcat [s^-1]; 0.1 µM cofactor, 25 °C; apparent KD
FGD-Cryar (FSD-Cryar) = FGD-Cryar (FSD-Cryar) (Cryptosporangium arvum, UniProt A0A010YY07); experiment: as above; settings: read-out: FGD-Cryar (FSD-Cryar) / kcat [s^-1]; 0.1 µM cofactor, 25 °C; apparent KD

Question: Which results are given for `C[C@H](OP(=O)(O)OC[C@@H](O)[C@@H](O)[C@@H](O)Cn1c2cc(=O)ccc-2cc2c(=O)[nH]c(=O)[nH]c21)C(=O)N[C@@H](CCC(=O)N[C@@H](CCC(=O)O)C(=O)O)C(=O)O`?
Answer: Kd (AncD1): 1600 nM; Kd (FGD-Cryar (FSD-Cryar)): 2200 nM
